Read-outs that look alike come from different tables or passages of the source.
Assays:
[1] = biological target: GSK3b (GST-full length GSK3b) (Homo sapiens (Human), UniProt P49841); assay: GSK3b TR-FRET kinase assay; assay type: biochemical
[2] = biological target: GSK3α (GST-full length GSK3α) (Homo sapiens (Human), UniProt P49840); assay: GSK3α TR-FRET kinase assay; assay type: biochemical
[3] = read-out: GSK3-B (TR-FRET 1 mM ATP), GMean, IC50, 1 mM ATP, geometric mean
[4] = read-out: GSK3-B TR-FRET BIOCHEMICAL (TR-FRET);, 1 nM GSK3b, 2 μM ATP, 30 minute preincubation, Table 16
[5] = read-out: GSK3-A (TR-FRET 1 mM ATP), GMean, IC50, 1 mM ATP, geometric mean
[6] = read-out: GSK3-A TR-FRET BIOCHEMICAL (TR-FRET);, 1 nM GSK3α, 4 μM ATP, 30 minute preincubation, Table 16
[7] = read-out: GSK3-B TR-FRET BIOCHEMICAL (TR-FRET), IC50, 1 nM GSK3b, 2 μM ATP, 30 minute preincubation
[8] = read-out: GSK3-A TR-FRET BIOCHEMICAL (TR-FRET), IC50, 1 nM GSK3α, 4 μM ATP, 30 minute preincubation
[9] = read-out: GSK3-B TR-FRET BIOCHEMICAL (TR-FRET), IC50, 1 nM GSK3b, 2 μM ATP, 30 minute preincubation (Table 16)
[10] = read-out: GSK3-A TR-FRET BIOCHEMICAL (TR-FRET), IC50, 1 nM GSK3α, 4 μM ATP, 30 minute preincubation (Table 16)
[11] = read-out: GSK3-B TR-FRET BIOCHEMICAL (TR-FRET), GMean, IC50, 1 nM GSK3b, 2 μM ATP, 30 minute preincubation, geometric mean
[12] = read-out: GSK3-A TR-FRET BIOCHEMICAL (TR-FRET), GMean, IC50, 1 nM GSK3α, 4 μM ATP, 30 minute preincubation, geometric mean

Amino acid sequences for entries named in this document (tags omitted).
UniProt P49841, whole entry: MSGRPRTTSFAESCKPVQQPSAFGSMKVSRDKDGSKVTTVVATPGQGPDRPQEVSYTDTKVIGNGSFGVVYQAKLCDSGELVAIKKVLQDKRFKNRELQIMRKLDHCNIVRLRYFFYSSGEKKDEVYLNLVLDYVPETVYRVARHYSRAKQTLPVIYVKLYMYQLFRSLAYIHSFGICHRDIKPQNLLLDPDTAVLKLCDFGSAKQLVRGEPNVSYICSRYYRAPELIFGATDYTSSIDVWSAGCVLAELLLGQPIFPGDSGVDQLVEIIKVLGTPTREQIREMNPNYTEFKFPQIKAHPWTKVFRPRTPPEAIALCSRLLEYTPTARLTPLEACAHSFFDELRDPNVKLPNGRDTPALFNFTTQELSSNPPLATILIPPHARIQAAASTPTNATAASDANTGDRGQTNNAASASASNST
UniProt P49840, whole entry: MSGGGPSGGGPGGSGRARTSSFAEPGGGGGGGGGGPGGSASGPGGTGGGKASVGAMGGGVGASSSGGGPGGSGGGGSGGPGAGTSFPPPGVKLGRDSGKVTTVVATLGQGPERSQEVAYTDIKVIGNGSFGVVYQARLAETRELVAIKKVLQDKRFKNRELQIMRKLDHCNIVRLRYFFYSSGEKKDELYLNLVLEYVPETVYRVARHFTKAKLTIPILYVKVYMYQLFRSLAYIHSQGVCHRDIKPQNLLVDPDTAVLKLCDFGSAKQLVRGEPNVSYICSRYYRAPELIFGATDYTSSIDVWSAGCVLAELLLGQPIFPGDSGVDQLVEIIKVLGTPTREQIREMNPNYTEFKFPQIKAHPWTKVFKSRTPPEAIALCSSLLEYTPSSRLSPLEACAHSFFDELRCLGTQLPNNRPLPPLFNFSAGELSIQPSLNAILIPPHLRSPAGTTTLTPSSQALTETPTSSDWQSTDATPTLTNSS

Structure (SMILES)	IC50 [1, 9] [µM]	IC50 [2, 10] [µM]	IC50 [1, 11] [µM]	IC50 [2, 12] [µM]	other results
CC[C@]1(c2cccc(-c3cnn(C)c3)c2)C2=C(Nc3n[nH]cc31)[C@@H](F)C(C)(C)CC2=O	–	–	–	–	IC50 [1, 3]: > 5 µM; IC50 [1, 4]: 0.1 to 1 µM; IC50 [2, 5]: 0.1 to 1 µM; IC50 [2, 6]: < 0.1 µM
CCc1cccc(N(C)c2cccc([C@@]3(CC)C4=C(CC(C)(C)CC4=O)Nc4n[nH]cc43)c2)n1	–	–	–	–	IC50 [1, 4]: 0.1 to 1 µM; IC50 [2, 6]: < 0.1 µM
CCC1(c2cccc(-c3cnn(C)c3C)c2)C2=C(CC(C)(C)NC2=O)Nc2n[nH]cc21 (stereo not shown)	–	–	–	–	IC50 [1, 7]: 0.1 to 1 µM; IC50 [2, 8]: < 0.1 µM
CC1(C)CC(=O)C2=C(C1)Nc1n[nH]cc1[C@]21COC2(CN(C(=O)[C@@H]3CC3(F)F)C2)C1	–	–	–	–	IC50 [1, 3]: 1 to 5 µM; IC50 [1, 7]: < 0.1 µM; IC50 [2, 5]: 0.1 to 1 µM; IC50 [2, 8]: < 0.1 µM
CCC1(c2cccc(-c3cc(OC)ncn3)c2)C2=C(CC(C)(C)CC2=O)Nc2n[nH]cc21 (stereo not shown)	–	–	–	–	IC50 [1, 4]: 0.1 to 1 µM; IC50 [2, 6]: < 0.1 µM
CC[C@@]1(c2cccc(-c3ccncc3F)c2)C2=C(CC(C)(C)CC2=O)Nc2n[nH]c(C(F)(F)F)c21	–	–	–	–	IC50 [1, 4]: 0.1 to 1 µM; IC50 [2, 6]: < 0.1 µM
CC[C@@]1(c2cccc(C(F)(F)F)c2)C2=C(CC(C)(C)CC2=O)Nc2n[nH]c(C)c21	–	–	< 0.1	< 0.1	–
CC[C@@]1(c2cccc(-c3c(C)nn(C)c3C)c2)C2=C(CC(C)(C)NC2=O)Nc2n[nH]c(C(F)(F)F)c21	–	–	< 0.1	< 0.1	IC50 [1, 3]: < 0.1 µM; IC50 [2, 5]: < 0.1 µM
CC(C)(C)Cc1[nH]nc2c1[C@]1(CCCc3ccccc31)C1=C(CC(C)(C)CC1=O)N2	–	–	0.1 to 1	1 to 5	–
CCC1(c2cccc(N(C)C(=O)C3CCN(C)CC3)c2)C2=C(CC(C)(C)CC2=O)Nc2n[nH]cc21 (stereo not shown)	1 to 5	0.1 to 1	–	–	–
CC[C@]1(c2cccc(Br)c2)C2=C(C[C@H](C)CC2=O)Nc2n[nH]cc21	–	–	> 5	> 5	–
CC[C@]1(c2cccc(N(C)c3cccc(C(F)(F)F)n3)c2)C2=C(CC(C)(C)CC2=O)Nc2n[nH]cc21	0.1 to 1	< 0.1	–	–	–
CC[C@@]1(c2cccc(-c3cc(C)nn3C)c2)C2=C(CC(C)(C)CC2=O)Nc2n[nH]c(C(F)(F)F)c21	–	–	–	–	IC50 [1, 3]: 0.1 to 1 µM; IC50 [1, 4]: < 0.1 µM; IC50 [2, 5]: < 0.1 µM; IC50 [2, 6]: < 0.1 µM
CCC1(c2cccc(N3CCc4ccncc4C3)c2)C2=C(CC(C)(C)CC2=O)Nc2n[nH]cc21 (stereo not shown)	> 5	1 to 5	–	–	–
CC[C@@]1(c2cccc(Cc3ncccc3C(F)(F)F)c2)C2=C(CC(C)(C)CC2=O)Nc2n[nH]cc21	–	–	–	–	IC50 [1, 4]: 0.1 to 1 µM; IC50 [2, 6]: < 0.1 µM
CC[C@]1(c2cccc(N3CCCCC3)c2)C2=C(CC(C)(C)CC2=O)Nc2n[nH]cc21	–	–	0.1 to 1	< 0.1	–
CC[C@]1(c2cccc(N(C)c3nccc(OC)n3)c2)C2=C(CC(C)(C)CC2=O)Nc2n[nH]cc21	–	–	–	–	IC50 [1, 4]: 1 to 5 µM; IC50 [2, 6]: 0.1 to 1 µM

Structure (SMILES)	IC50 [1, 9] [µM]	IC50 [2, 10] [µM]	IC50 [1, 11] [µM]	IC50 [2, 12] [µM]	other results
CCC1(c2cccc(C3CC4CCC(C3)O4)c2)C2=C(CC(C)(C)CC2=O)Nc2n[nH]cc21 (stereo not shown)	0.1 to 1	0.1 to 1	–	–	–
CC(C)(C)Cc1[nH]nc2c1C1(CCc3c(F)cccc31)C1=C(CC(C)(C)CC1=O)N2 (stereo not shown) [Compound 791256]	–	–	< 0.1	0.1 to 1	–
CC[C@@]1(c2cccc(N(C)c3cc(C)ccn3)c2)C2=C(CC(C)(C)CC2=O)Nc2n[nH]cc21	–	–	–	–	IC50 [1, 4]: > 5 µM; IC50 [2, 6]: > 5 µM
CC1(C)CC(=O)C2=C(C1)Nc1n[nH]c(C(F)(F)F)c1C21CCCc2ccccc21 (stereo not shown)	–	–	< 0.1	< 0.1	–
CCC1(c2cccc(S(=O)(=O)CC3CC3)c2)C2=C(CC(C)(C)CC2=O)Nc2n[nH]cc21 (stereo not shown) [Compound 917150]	< 0.1	< 0.1	–	–	–
CCC1(c2cccc(N(C)c3ncccn3)c2)C2=C(CC(C)(C)NC2=O)Nc2n[nH]c(Cl)c21 (stereo not shown)	< 0.1	< 0.1	–	–	–
CC[C@@]1(c2cccc(Oc3ncccn3)c2)C2=C(CC(C)(C)NC2=O)Nc2n[nH]c(F)c21	> 5	1 to 5	–	–	–
CC[C@]1(c2cccc(C)c2)C2=C(CC(C)(C)CC2=O)Nc2n[nH]c(C(F)(F)F)c21	> 5	1 to 5	–	–	–
CC[C@]1(c2cccc(-c3ccnn3C)c2)C2=C(C[C@]3(CCOC3)NC2=O)Nc2n[nH]cc21	–	–	< 0.1	< 0.1	–
CC1(C)CC(=O)C2=C(C1)Nc1n[nH]c(CCC(F)(F)F)c1[C@]2(C)c1ccccc1	–	–	< 0.1	0.1 to 1	–
CC[C@@]1(c2cccc(-c3ccnc(C)c3)c2)C2=C(CC(C)(C)[C@@H](F)C2=O)Nc2n[nH]cc21	–	–	–	–	IC50 [1, 4]: > 5 µM; IC50 [2, 6]: > 5 µM
CC[C@@]1(c2cccc(C(F)F)c2)C2=C(CC(C)(C)CC2=O)Nc2n[nH]c(C(F)(F)F)c21	–	–	–	–	IC50 [1, 4]: 0.1 to 1 µM; IC50 [2, 6]: < 0.1 µM
CCC1(c2cccc(N(C)c3cccnc3)c2)C2=C(CC(C)(C)CC2=O)Nc2n[nH]cc21 (stereo not shown)	–	–	< 0.1	< 0.1	–
CC[C@]1(c2cccc(N(C)C(=O)c3cnn(C)c3)c2)C2=C(CC(C)(C)CC2=O)Nc2n[nH]cc21	< 0.1	< 0.1	–	–	–
CC[C@]1(c2cccc(N(C)c3ncccn3)c2)C2=C(CC(C)(C)CC2=O)Nc2n[nH]cc21	< 0.1	< 0.1	–	–	IC50 [1, 3]: 0.1 to 1 µM; IC50 [2, 5]: < 0.1 µM
CC[C@]1(c2cccc(C(F)(F)F)c2)C2=C(Nc3n[nH]cc31)[C@@H](C)N(Cc1ccccc1)C2=O	–	–	–	–	IC50 [1, 7]: > 5 µM; IC50 [2, 8]: 1 to 5 µM

Second part, led by results:

IC50 [1, 9] [µM]	IC50 [2, 10] [µM]	IC50 [1, 11] [µM]	IC50 [2, 12] [µM]	Structure (SMILES)	other results
> 5	1 to 5	–	–	CC[C@@]1(c2cccc(-c3cnn4c3CC(C)(C)CC4)c2)C2=C(CC(C)(C)NC2=O)Nc2n[nH]cc21	–
0.1 to 1	< 0.1	–	–	CC[C@]1(c2cccc(-c3ccnc4ccncc34)c2)C2=C(CC(C)(C)NC2=O)Nc2n[nH]cc21	IC50 [1, 3]: > 5 µM; IC50 [2, 5]: 0.1 to 1 µM
0.1 to 1	< 0.1	–	–	CC[C@@]1(c2cccc(-c3cc(C)nc(C)c3)c2)C2=C(CC(C)(C)CC2=O)Nc2n[nH]cc21	–
–	–	0.1 to 1	< 0.1	CC[C@@]1(c2cccc(-c3ccnc(C)c3)c2)C2=C(CC(C)(C)NC2=O)Nc2n[nH]c(C)c21	–
–	–	1 to 5	0.1 to 1	CCC1(c2cccc(OC)c2)C2=C(CC(C)(C)NC2=O)Nc2n[nH]cc21 (stereo not shown)	–
–	–	< 0.1	< 0.1	CC[C@]1(c2cccc(-c3c(F)cncc3OC)c2)C2=C(CC(C)(C)NC2=O)Nc2n[nH]cc21	IC50 [1, 3]: 0.1 to 1 µM; IC50 [2, 5]: < 0.1 µM
–	–	> 5	0.1 to 1	CC[C@]1(c2cccc(-c3c4c(nn3C)CCCC4)c2)C2=C(CC(C)(C)NC2=O)Nc2n[nH]cc21	–
–	–	> 5	1 to 5	CC[C@]1(c2cccc(-c3ccnc4cnccc34)c2)C2=C(CC(C)(C)NC2=O)Nc2n[nH]cc21	–
> 5	1 to 5	–	–	CC[C@]1(c2cccc(-c3cc(C)nnc3C)c2)C2=C(CC(C)(C)NC2=O)Nc2n[nH]c(C)c21	–
> 5	1 to 5	–	–	CC[C@@]1(c2cccc(-c3cnn4cc(F)cc(F)c34)c2)C2=C(CC(C)(C)NC2=O)Nc2n[nH]cc21	–
–	–	< 0.1	< 0.1	CC[C@]1(c2cccc(-c3c(F)cncc3F)c2)C2=C(CC(C)(C)NC2=O)Nc2n[nH]cc21	IC50 [1, 3]: 1 to 5 µM; IC50 [2, 5]: 0.1 to 1 µM
< 0.1	< 0.1	–	–	CC[C@@]1(c2cccc(-c3cn(C)nc3C)c2)C2=C(CC3(CCCC3)NC2=O)Nc2n[nH]cc21	IC50 [1, 3]: 1 to 5 µM; IC50 [2, 5]: < 0.1 µM
–	–	0.1 to 1	< 0.1	CC[C@]1(c2cccc(-c3ccnc4cc(Cl)ccc34)c2)C2=C(CC(C)(C)NC2=O)Nc2n[nH]cc21	–
–	–	> 5	1 to 5	CC[C@]1(c2cccc(-c3ccncn3)c2)C2=C(CC(C)(C)CC2=O)Nc2n[nH]cc21	–
